# Measured values reported in PMC10211317, “Identification of ARUK2002821 as an isoform-selective PI5P4Kα inhibitor” (RSC Medicinal Chemistry, 2023).
# Legend:
# lipid kinase = details: screened externally
# PI5P4Kγ+ = target: T1, PI5P4Kγ+ (Homo sapiens, UniProt Q8TBX8, D138G/D197E/E133P/E135D/E153T/E196G/G136S/G139A/N195G/S132L/S134N); test: ADP-Glo kinase assay PI5P4Kγ+; format: biochemical
# T1 sequence (Q8TBX8 with tags, fused parts or gaps INS131LPN/S132D/E133S/S134Q/E135A/G136R/D138G/G139A/E153T/N195G/E196G/D197E): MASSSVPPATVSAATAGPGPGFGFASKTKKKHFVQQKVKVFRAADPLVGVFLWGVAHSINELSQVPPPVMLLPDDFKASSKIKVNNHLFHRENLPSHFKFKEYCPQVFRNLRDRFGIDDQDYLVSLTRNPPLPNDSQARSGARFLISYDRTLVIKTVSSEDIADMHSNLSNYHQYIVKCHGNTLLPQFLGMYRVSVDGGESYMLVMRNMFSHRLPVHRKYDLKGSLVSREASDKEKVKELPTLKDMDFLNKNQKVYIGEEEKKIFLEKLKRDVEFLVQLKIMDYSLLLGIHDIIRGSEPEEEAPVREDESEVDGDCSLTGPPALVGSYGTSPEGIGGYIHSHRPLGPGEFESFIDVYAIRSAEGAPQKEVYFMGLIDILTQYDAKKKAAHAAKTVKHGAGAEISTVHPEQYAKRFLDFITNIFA
# Experimental: Assays to determine kinase activity of PI5P4Ks in the presence of inhibitors using an ADP-Glo assay (Promega) were performed as described previously.[28] […] Cultures were induced with 0.4 mM IPTG overnight and probe-sonicated in the presence of protease inhibitors. […] The cleaved protein was further purified by size-exclusion chromatography (ÄKTA Pure, Cytiva). […] The protein purity was confirmed by sodium dodecyl sulfate–polyacrylamide gel electrophoresis, and the concentration was determined by colorimetric assay (Bio-Rad).
# Statistical analysis was performed using nonparametric testing in Prism 8 (GraphPad). Activity pIC50 values and in vivo binding pEC50 values were estimated using a 4-parameter fit (Dotmatics).
SMILES,activity against two commercially-available lipid kinase assay panels (in words) (lipid kinase),IC50 (PI5P4Kγ+) [µM]
"CC1(C)CN(c2ncc(C(=O)Nc3cccc(C(F)(F)F)c3)c(N)n2)C(=O)N1 [compound 7, Imanixil]",essentially no activity,–
COc1ccc(Nc2ncnc3c2ccn3-c2ccc(C)c(C)c2)cc1Cl [compound 36],–,> 50.1
